Reference: patent publication US9505753B2, “Inhibitors of D-amino acid oxidase” (THE JOHNS HOPKINS UNIVERSITY, priority 2012, dated 2016)

By UniProt entry, the sequences of proteins in these tests, tags left out. Where a name states a change or a piece, a line headed by the entry shows the natural chain unless it says otherwise.
UniProt P14920: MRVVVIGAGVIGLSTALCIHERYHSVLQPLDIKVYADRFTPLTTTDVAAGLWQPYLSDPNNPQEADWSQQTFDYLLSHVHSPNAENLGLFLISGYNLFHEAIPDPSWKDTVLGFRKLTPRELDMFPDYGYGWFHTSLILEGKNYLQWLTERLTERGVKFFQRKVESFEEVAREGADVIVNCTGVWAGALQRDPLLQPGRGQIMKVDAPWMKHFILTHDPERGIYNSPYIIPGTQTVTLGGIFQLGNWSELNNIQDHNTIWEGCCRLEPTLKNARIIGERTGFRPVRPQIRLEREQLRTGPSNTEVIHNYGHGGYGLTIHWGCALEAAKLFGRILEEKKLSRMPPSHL

Target: human recombinant D-amino acid oxidase (Homo sapiens (Human), UniProt P14920)
Assay: In vitro D-amino acid oxidase (DAAO) assay, 96-well plate
Format: biochemical
Conditions: D-serine 5 mM, FAD 1 μM, 20 min, room temperature, Tris buffer pH 8.5, read-out: Inhibition of DAAO IC50
Description: A reliable 96-well plate D-amino acid oxidase (DAAO) assay was developed based on previously published reports (J. Biol. Chem. 277: 27782 (2002)). […] All reactions were carried out for 20 min at room temperature in a 100-μL volume in Tris buffer (50 mM, pH 8.5). Additionally, stock solutions and serial dilutions of potential DAO inhibitors were made in 10:90 DMSO:buffer with a final assay DMSO concentration of 1%.

IC50: 200 nM
Substance: 6-Hydroxy-2-(perfluorophenyl)ethyl-1,2,4-triazine-3,5(2H,4H)-dione [Compound 10m]
